Experimental data as given in patent US11666630B2, “Polypeptides for managing viral infections” (priority 2016, dated 2023).

Tests used:
ZIKV = experiment: Transmission electron microscopy of peptide-treated ZIKV; conditions: 200 μM peptide, 10 min treatment
ZIKV (PRVABC59 strain) = conditions: 2 h

## CC[C@H](C)[C@H](NC(=O)[C@@H](NC(=O)CNC(=O)[C@H](CC(C)C)NC(=O)[C@H](Cc1ccccc1)NC(=O)[C@H](Cc1ccccc1)NC(=O)[C@H](CC(C)C)NC(=O)[C@H](CC(C)C)NC(=O)[C@H](CC(C)C)NC(=O)[C@H](CCSC)NC(=O)[C@@H](N)CO)[C@@H](C)O)C(=O)N[C@@H](CO)C(=O)N[C@@H](CC(C)C)C(=O)N[C@@H](CO)C(=O)N[C@@H](CC(C)C)C(=O)N[C@@H](CS)C(=O)N[C@@H](CCC(N)=O)C(=O)N[C@@H](CC(=O)O)C(=O)N[C@@H](CC(=O)O)C(=O)N[C@@H](CCC(N)=O)C(=O)N[C@@H](CCC(=O)O)C(=O)N[C@@H](CCCNC(=N)N)C(=O)N[C@@H](CS)C(=O)O [Yodha peptide] (H-SMLLLFFLGTISLSLCQDDQERC-OH; N-terminus and C-terminus assumed)
ZIKV
  morphology of ZIKV particles (electron microscopy): loss of morphology and aggregation of virus particles
ZIKV (PRVABC59 strain)
  IC50 against ZIKV: 52 µg/mL (≈ 19.7 µM)

≈ marks a conversion by molar mass, not a printed value. Peptide text beside a SMILES is read from it.
